In patent US6709873B1, “Method for production of antibodies to specific sites of rapamycin” (Isodiagnostika Inc., priority 1997, dated 2004):

Assays:
MoAb R-6-3 = test: Inhibition ELISA of MoAb R-6-3; format: binding, mouse
Description: (§1) Inhibition ELISA Protocol
(§2) 1. Use Falcon® Pro-bind™ inununoplates.
(§3) 2. Dilute coating antigen to 1 μg/mL in carbonate-bicarbonate buffer.
(§4) Add 100 μL per well and incubate overnight at 4° C.
(§5) 3. On the same day prepare inhibiting antigen tubes. Aliquot antibodies into glass test tubes. Prepare appropriate antigen concentration in ethanol and add to aliquoted antibody at 10 μL ethanol solution/250 μL antibody.
(§6) Vortex tubes and incubate overnight at 4° C.
(§7) 4. Shake out wells and wash 3× with 200 μL PBS/0.05% TWEEN™ (polyoxyethylene-sorbitol) (v/v) per well.
(§8) 5. Add 200 μL blocking buffer per well (PBS/2% BSA (w/v)).
(§9) Incubate 60 min at room temperature.
(§10) 7. Transfer contents of inhibition tubes to antigen-coated plate, 100 μL per well. Incubate 60 min at 37° C.
(§11) 9. […] Add 100 μL per well and incubate at 37° C. for 60 min.
(§12) 11. […] Add 100 μL per well and incubate in the dark at room temperature. Absorbance can be read at 405 nm at approximately 15-min intervals.

MoAb R-1-5 = test: Inhibition ELISA of MoAb R-1-5; format: binding, mouse; conditions: tissue culture supernatant
Description: as §1, §2, §3, §4, §5, §6, §7, §8, §9, §10, §11, §12
(§13) To further characterize the reactivity of monoclonal antibodies from various clones, inhibition ELISA were performed.

MoAb R-5-3 = test: Inhibition ELISA of MoAb R-5-3; format: binding, mouse; conditions: tissue culture supernatant
Description: as §1, §2, §3, §4, §5, §6, §7, §8, §9, §10, §11, §12

[1] = test system: Mouse polyclonal antibody Rapa-DVS #7; test: Inhibition ELISA of mouse polyclonal serum Rapa-DVS #7; format: binding
Description: as §1, §2, §3, §4, §5, §6, §7, §8, §9, §10, §11, §12

[2] = test system: Mouse polyclonal antibody Rapa-DVS #9; test: Inhibition ELISA of mouse polyclonal serum Rapa-DVS #9; format: binding
Description: as §1, §2, §3, §4, §5, §6, §7, §8, §9, §10, §11, §12

MoAb R-6-2 = test: Inhibition ELISA of MoAb R-6-2; format: binding, mouse
Description: as §1, §2, §3, §4, §5, §6, §7, §8, §9, §10, §11, §12

[3] = test system: Mouse polyclonal antibody Rapa-27 #12 (Rapa-27-ox-DVS-KLH immunogen); test: Inhibition ELISA of mouse polyclonal serum Rapa-27 #12; conditions: binding to Rapa-27-HSA
Description: as §1, §2, §3, §4, §5, §6, §7, §8, §9, §10, §11, §12

MoAb R-4-1 = test: Inhibition ELISA of MoAb R-4-1; format: binding, mouse; conditions: tissue culture supernatant
Description: as §1, §2, §3, §4, §5, §6, §7, §8, §9, §10, §11, §12

[4] = test system: Chicken polyclonal antibody (IgY, Rapa-42-DVS-KLH immunogen); test: Inhibition ELISA of chicken IgY prep; format: binding; conditions: Rapa antigen coated ELISA plate
Description: as §1, §2, §3, §4, §5, §6, §7, §8, §9, §10, §11, §12

MoAb R-4-7 = test: Inhibition ELISA of MoAb R-4-7; format: binding, mouse; conditions: tissue culture supernatant
Description: as §1, §2, §3, §4, §5, §6, §7, §8, §9, §10, §11, §12

MoAb R-2-2 = test: Inhibition ELISA of MoAb R-2-2; format: binding, mouse; conditions: tissue culture supernatant
Description: as §1, §2, §3, §4, §5, §6, §7, §8, §9, §10, §11, §12, §13

MoAb R-1-1 = test: Inhibition ELISA of MoAb R-1-1; format: binding, mouse; conditions: tissue culture supernatant
Description: as §1, §2, §3, §4, §5, §6, §7, §8, §9, §10, §11, §12, §13

[5] = test system: Rabbit #1 polyclonal antibody (Rapa-42-DVS-KLH immunogen); test: Inhibition ELISA of rabbit #1 polyclonal serum; format: binding; conditions: Rapa antigen coated ELISA plate
Description: as §1, §2, §3, §4, §5, §6, §7, §8, §9, §10, §11, §12

MoAb R-3-1 = test: Inhibition ELISA of MoAb R-3-1; format: binding, mouse; conditions: tissue culture supernatant
Description: as §1, §2, §3, §4, §5, §6, §7, §8, §9, §10, §11, §12, §13

In the case of human serum albumin [HSA], the “Percent inhibition of MoAb R-6-3” value (MoAb R-6-3) is reported as 0%, the “Percent inhibition of MoAb R-1-5” value (MoAb R-1-5) is reported as 10% and the “Percent inhibition of MoAb R-5-3” value (MoAb R-5-3) is reported as 13%. For the same substance, the “Percent inhibition of mouse polyclonal antibody Rapa-DVS #7” value [1] was 6.8%, the “Percent inhibition of mouse polyclonal antibody Rapa-DVS #9” value [2] was 10.4% and the “Percent inhibition of MoAb R-6-2” value (MoAb R-6-2) was 0%. For the same substance, the “Percent inhibition of mouse polyclonal antibody Rapa-27 #12” value [3] was 0%, the “Percent inhibition of MoAb R-4-1” value (MoAb R-4-1) was 2% and the “Percent inhibition of Chicken polyclonal antibody” value [4] was 0%. The “Percent inhibition of MoAb R-4-7” value (MoAb R-4-7) was 6%, the “Percent inhibition of MoAb R-2-2” value (MoAb R-2-2) was 16% and the “Percent inhibition of MoAb R-1-1” value (MoAb R-1-1) was 2%. The “Percent inhibition of Rabbit #1 polyclonal antibody” value [5] was 0% and the “Percent inhibition of MoAb R-3-1” value (MoAb R-3-1) was 0%.
